# PubChem BioAssay AID686948 (National Center for Advancing Translational Sciences (NCATS), 2013)
# The chains behind the UniProt entries cited, without tags or fusion partners.
# UniProt P07947, whole entry, looked up: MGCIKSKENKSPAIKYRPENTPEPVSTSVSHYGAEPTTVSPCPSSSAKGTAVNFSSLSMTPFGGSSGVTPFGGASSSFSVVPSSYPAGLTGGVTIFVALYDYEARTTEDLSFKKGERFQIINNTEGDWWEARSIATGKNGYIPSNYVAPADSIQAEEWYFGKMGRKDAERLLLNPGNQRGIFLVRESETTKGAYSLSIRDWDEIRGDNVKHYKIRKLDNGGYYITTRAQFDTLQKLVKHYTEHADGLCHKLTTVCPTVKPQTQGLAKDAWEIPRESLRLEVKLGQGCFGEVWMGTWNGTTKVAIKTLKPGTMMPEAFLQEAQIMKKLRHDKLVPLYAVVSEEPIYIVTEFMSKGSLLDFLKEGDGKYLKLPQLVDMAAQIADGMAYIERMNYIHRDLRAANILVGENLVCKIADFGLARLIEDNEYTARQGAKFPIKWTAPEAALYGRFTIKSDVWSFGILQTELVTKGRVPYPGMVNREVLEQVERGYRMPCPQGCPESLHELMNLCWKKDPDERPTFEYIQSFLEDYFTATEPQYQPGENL
# The entries are a selection whose mix differs from that of the whole data set. Activity calls are given as the source filed them. Calls follow the shape of the dose curve; as a rule, active = well fitted inhibition curve with a large enough effect; inactive = flat fitted curve, though single readings scatter.
# Target: Tyrosine-protein kinase Yes (Homo sapiens) (UniProt P07947)
# Experiment: qHTS for small molecule inhibitors of Yes1 kinase: Confirmatory screen on the cherrypicks
# Conditions: Recombinant Yes1, ADP-Glo luminescence, poly(E4Y) substrate
# Source text: The Src family of non-receptor protein tyrosine kinases contains nine members, including Yes1, Src, Fyn, Lyn, and […]. These kinases have important roles in a variety of cellular functions, such as cell proliferation, survival, and differentiation. Src, the most well characterized member of this family, has been previously identified as a proto-oncogene. […] In melanoma, it has been shown that Yes1, and not other family members, such as Src, is functionally involved in the malignant phenotype. Additionally, a recent study examining the downregulation of Yes1 by shRNA found significant effects on cell survival/growth for basal-like and Her2-positive breast cancers. […]
# Two microliter of Yes1 enzyme (columns 1-2, 5-48; Millipore, Billerica, MA) are dispensed into Greiner, white solid-bottom 1536-well assay plates; columns 3 and 4 receive buffer without Yes1 as a control for maximum inhibition. […] The production of ADP is then quantified by the ADP-Glo Kit (Promega, Madison, WI). First, 2 uL of the first kit reagent is added, and the reaction is incubated for 45 minutes; then, 4 uL of the second kit reagent are added and the reaction is incubated for 30 minutes at which time the luminescence is read on a Viewlux plate reader (Perkin-Elmer, Waltham, MA). […]
smiles,measurement,value
CCN1CCN(Cc2ccc(-c3cc4c(N[C@H](C)c5ccccc5)ncnc4[nH]3)cc2)CC1,Potency,active: 17.5 nM
